{
  "source": "patent US20240150372A1",
  "about": "(priority 2021, published 2024)",
  "origin": "cited, not measured here",
  "system": "human cardiomyocytes",
  "conditions": "Rubi, L. et al 2017; cited from earlier work",
  "data": [
    {"substance": "ibogaine", "values": [
      {"measurement": "action potential repolarization", "value": "significantly delayed action potential repolarization"}
    ]}
  ]
}
